Experimental data: patent US9975882B2, “Heteroaromatic compounds as BTK inhibitors” (Boehringer Ingelheim International GmbH, priority 2015, dated 2018)

The chains behind the UniProt entries cited, without tags or fusion partners. Where a name states a change or a piece, a line headed by the entry shows the natural chain unless it says otherwise.
UniProt Q06187: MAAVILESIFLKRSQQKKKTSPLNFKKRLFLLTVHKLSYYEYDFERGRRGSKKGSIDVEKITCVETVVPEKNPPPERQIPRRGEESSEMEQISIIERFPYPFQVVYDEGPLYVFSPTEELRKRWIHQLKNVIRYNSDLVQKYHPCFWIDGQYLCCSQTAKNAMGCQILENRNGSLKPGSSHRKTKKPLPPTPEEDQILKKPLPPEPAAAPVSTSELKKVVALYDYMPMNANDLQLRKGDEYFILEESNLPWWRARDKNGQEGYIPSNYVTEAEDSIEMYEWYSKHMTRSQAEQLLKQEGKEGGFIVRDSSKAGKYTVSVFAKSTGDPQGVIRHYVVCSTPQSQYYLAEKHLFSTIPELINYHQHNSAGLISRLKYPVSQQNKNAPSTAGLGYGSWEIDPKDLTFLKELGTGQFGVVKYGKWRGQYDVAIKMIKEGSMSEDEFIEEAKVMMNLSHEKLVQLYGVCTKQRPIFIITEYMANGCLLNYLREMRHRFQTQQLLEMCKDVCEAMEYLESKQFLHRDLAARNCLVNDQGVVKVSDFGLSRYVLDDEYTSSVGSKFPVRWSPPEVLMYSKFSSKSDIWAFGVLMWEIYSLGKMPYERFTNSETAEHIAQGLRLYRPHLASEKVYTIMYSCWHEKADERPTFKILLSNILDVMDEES

Target: human recombinant BTK (full length, His-tagged) (Homo sapiens (Human), UniProt Q06187)
Experiment: BTK Z'-LYTE assay;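 also: FRET readout of kinase phosphorylating a coumarin and fluorescein labelled synthetic peptide, detected via protease sensitivity of unphosphorylated versus phosphorylated substrate, incubated at 22 °C in 384-well plates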
Type: biochemical
Conditions: 25 μM ATP

IC50: 6.1 nM
Structure (SMILES): C=CC(=O)Nc1cccc(Nc2nc(Nc3ccc(OCCOC)cc3)ncc2F)c1 [Compound C, N-(3-(5-fluoro-2-(4-(2-methoxyethoxy)phenylamino)pyrimidin-4-ylamino)phenyl)acrylamide]
